Measurements reported in US20180009871A1 (INTARCIA THERAPEUTICS, published 2018).

Legend:
Experiment in all cases: cell-based or functional assay
hGIPR (human) = hGIPR (human) (UniProt P48546)
[1] = target: human GLP-1 receptor (GLP-1R) (human) (UniProt P43220)
[2] = target: human glucagon receptor (GCGR) (human) (UniProt P47871)

Substance: Exenatide (peptide)
- Human in vitro Potency (pEC50), hGIPR (hGIPR (human)): < 5 pEC50
- Human in vitro Potency (pEC50), hGLP-1R [1]: 11.7 pEC50
- Human in vitro Potency (pEC50), hGCGR [2]: 9.2 pEC50
